In assay [1] the target is CDK2/CycA2 (Homo sapiens, UniProt P24941). Description: CDK2 mobility shift assay (enzymatic activity of CDK2/CycA2). As to conditions: read-out: CDK2 IC50; 1.25 nM CDK2/CycA2, 37 μM ATP, FL Peptide 18, 120 min at room temperature.
For assay [2], the target named is CDK5/p25 (Homo sapiens, UniProt Q00535). The experiment in a line: CDK5 mobility shift assay (enzymatic activity of CDK5/p25). As to conditions: for CDK5/CDK2 specificity: fold more active against CDK5 than CDK2; for pIC50: read-out: CDK5 IC50, 0.154 nM CDK5/p25, FL peptide 29, 60 min at room temperature.

Sequences of proteins named here, by UniProt entry; tags and fusion partners are left off. Residues count along the entry.
UniProt Q00535, whole entry: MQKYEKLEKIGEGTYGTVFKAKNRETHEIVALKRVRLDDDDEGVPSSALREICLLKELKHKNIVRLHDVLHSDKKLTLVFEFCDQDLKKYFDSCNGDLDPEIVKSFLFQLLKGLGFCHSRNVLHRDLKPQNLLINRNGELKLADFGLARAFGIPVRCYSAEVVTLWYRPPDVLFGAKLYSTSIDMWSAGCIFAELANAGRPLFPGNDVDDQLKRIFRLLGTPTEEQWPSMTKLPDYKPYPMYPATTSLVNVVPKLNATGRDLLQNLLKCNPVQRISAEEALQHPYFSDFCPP
UniProt Q15078, 99-307 partner limits assumed: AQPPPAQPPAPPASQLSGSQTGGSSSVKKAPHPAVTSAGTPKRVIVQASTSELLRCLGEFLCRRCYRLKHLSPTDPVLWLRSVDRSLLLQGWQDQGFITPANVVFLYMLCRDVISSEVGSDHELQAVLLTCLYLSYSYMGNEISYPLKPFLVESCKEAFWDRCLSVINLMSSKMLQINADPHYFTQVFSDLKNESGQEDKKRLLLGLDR

pIC50: −log10 of the molar value.

Turning to `OCc1ccn(-c2ccc(Nc3cc4nc(NC5CC6CC5CN6)ccc4cn3)c(F)c2)n1` (single isomer, unassigned), the pIC50 in assay [1] is below 6.00. In assay [2], the CDK5/CDK2 specificity entry was “+ (10-fold or less more active against CDK5 than CDK2)” and the pIC50 was below 6.00.

In the case of `CN1CCC([C@@](C)(O)c2ccc3cnc(Nc4ccc(C(C)(C)O)nc4)cc3n2)CC1`, the negative logarithm of the IC50 (pIC50) in assay [1] was 7.00 to 8.00. Besides, in assay [2], the CDK5/CDK2 specificity result is “++ (greater than 10-fold and less than or equal to 100-fold more active against CDK5 than CDK2)”; the pIC50 was above 8.00.

As for `CN[C@@H](c1ccc2cnc(Nc3ccc(-n4cccn4)cc3F)cc2n1)C1CCN(C)CC1`, the pIC50 in assay [1] is 6.00 to 7.00. Also, in assay [2], the CDK5/CDK2 specificity result is “++ (greater than 10-fold and less than or equal to 100-fold more active against CDK5 than CDK2)”; the negative logarithm of the IC50 (pIC50) was 7.00 to 8.00.

With `COc1cc(-c2ccc(Nc3cc4nc([C@](C)(O)C5CCN(C)CC5)ccc4cn3)c(F)c2)ccn1`, in assay [1], the negative logarithm of the IC50 (pIC50) is 6.00 to 7.00. In assay [2], the CDK5/CDK2 specificity result is “++ (greater than 10-fold and less than or equal to 100-fold more active against CDK5 than CDK2)”; the pIC50 was above 8.00.

As for `CN1CCC(S(=O)(=O)c2ccc3cnc(Nc4ccc(-c5ccc(C#N)cc5)cc4F)cc3n2)CC1`, the pIC50 in assay [1] is below 6.00; in assay [2], above 8.00. Moreover, in assay [2], the CDK5/CDK2 specificity entry was “+++ (greater than 100-fold more active against CDK5 than CDK2)”.

Consider `CN1CCC(S(=O)(=O)c2ccc3cnc(Nc4cccnc4O)cc3n2)CC1`, for which the negative logarithm of the IC50 (pIC50) in assay [1] is below 6.00. Also, in assay [2], the CDK5/CDK2 specificity entry was “++ (greater than 10-fold and less than or equal to 100-fold more active against CDK5 than CDK2)”; the pIC50 was 6.00 to 7.00.

Regarding `O=S(=O)(c1ccc2cnc(Nc3ccc(-n4ccc(CO)n4)cc3F)cc2n1)C1CNC1`, the values for the negative logarithm of the IC50 (pIC50) in assay [1] and in assay [2] were below 6.00 and 6.00 to 7.00, respectively. Also, the CDK5/CDK2 specificity result in assay [2] is on record as “+ (10-fold or less more active against CDK5 than CDK2)”.

Consider `CN1CCC([C@@](C)(O)c2ccc3cnc(Nc4ccc(N5CCN(C)C5=O)cc4F)cc3n2)CC1`, for which the negative logarithm of the IC50 (pIC50) in assay [1] is 7.00 to 8.00. In addition, in assay [2], the CDK5/CDK2 specificity result was “++ (greater than 10-fold and less than or equal to 100-fold more active against CDK5 than CDK2)”; the pIC50 was above 8.00.

On to `C[C@@H]1C[C@H](S(=O)(=O)c2ccc3cnc(Nc4ccc(-n5ccc(CO)n5)cc4F)cc3n2)CCN1`, for which, in assay [1], the pIC50 is below 6.00. For the same compound, in assay [2], the CDK5/CDK2 specificity result is given as “+ (10-fold or less more active against CDK5 than CDK2)” and the pIC50 was 6.00 to 7.00.

Consider `COc1cccc(-c2ccc(Nc3cc4nc(S(=O)(=O)C5CCN(C)CC5)ccc4cn3)c(F)c2)c1`, for which, in assay [1], the negative logarithm of the IC50 (pIC50) was below 6.00. For the same compound, in assay [2], the CDK5/CDK2 specificity entry is listed as “+++ (greater than 100-fold more active against CDK5 than CDK2)” and the negative logarithm of the IC50 (pIC50) is above 8.00.

For the compound `O=C(O)CCN(c1ccc2cnc(Nc3ccc(-n4ccc(CO)n4)cc3F)cc2n1)C1CCNCC1`, the negative-log IC50 (pIC50) in assay [1] was below 6.00. In addition, in assay [2], the CDK5/CDK2 specificity entry was “++ (greater than 10-fold and less than or equal to 100-fold more active against CDK5 than CDK2)”; the pIC50 is 6.00 to 7.00.

For `CN(C)[C@H]1CC[C@@H](N(CC(=O)O)c2ccc3cnc(Nc4ccc(-n5cccn5)cc4F)cc3n2)CC1` (relative stereo), the negative-log IC50 (pIC50) in assay [1] and in assay [2] was below 6.00 each time. Moreover, in assay [2], the CDK5/CDK2 specificity result was “+ (10-fold or less more active against CDK5 than CDK2)”.

`CN1CCC(S(=O)(=O)c2ccc3cnc(Nc4ccc(C5CCOCC5)cc4)cc3n2)CC1`: the pIC50 in assay [1] is 6.00 to 7.00; in assay [2], above 8.00. In assay [2], the CDK5/CDK2 specificity entry is listed as “+++ (greater than 100-fold more active against CDK5 than CDK2)”.

As to `CN1CCC(C(O)(c2ccc3cnc(Nc4ccc(-c5cccn(C)c5=O)cc4F)cc3n2)C(F)(F)F)CC1` (single isomer, unassigned) [396], the pIC50 in assay [1] was 6.00 to 7.00. Besides, in assay [2], the CDK5/CDK2 specificity result is “++ (greater than 10-fold and less than or equal to 100-fold more active against CDK5 than CDK2)”; the negative logarithm of the IC50 (pIC50) is 7.00 to 8.00.

For the compound `N#Cc1cccc(Nc2cc3nc(SC4CCNCC4)ccc3cn2)c1`, the negative-log IC50 (pIC50) in assay [1] was 7.00 to 8.00. In assay [2], the CDK5/CDK2 specificity entry was “++ (greater than 10-fold and less than or equal to 100-fold more active against CDK5 than CDK2)”; the pIC50 was above 8.00.

Take `C[C@H]1C[C@H](S(=O)(=O)c2ccc3cnc(Nc4ccc(-n5ccc(CO)n5)cc4F)cc3n2)CCN1`: the pIC50 is below 6.00 in assay [1] and 7.00 to 8.00 in assay [2]. Moreover, the CDK5/CDK2 specificity result in assay [2] is “++ (greater than 10-fold and less than or equal to 100-fold more active against CDK5 than CDK2)”.

Regarding `CN1CCC(Sc2ccc3cnc(Nc4ccc(-n5ccc(C(=O)O)n5)cc4F)cc3n2)CC1`, the negative-log IC50 (pIC50) in assay [1] is 7.00 to 8.00. Moreover, in assay [2], the CDK5/CDK2 specificity entry is “++ (greater than 10-fold and less than or equal to 100-fold more active against CDK5 than CDK2)”; the pIC50 is above 8.00.

In the case of `N[C@H]1CC[C@H](S(=O)(=O)c2ccc3cnc(Nc4ccc(-n5cccn5)cc4F)cc3n2)CC1`, in assay [1], the negative-log IC50 (pIC50) was 6.00 to 7.00. Moreover, in assay [2], the CDK5/CDK2 specificity entry is “++ (greater than 10-fold and less than or equal to 100-fold more active against CDK5 than CDK2)”; the pIC50 is above 8.00.

Regarding `OCc1ccn(-c2ccc(Nc3cc4nc(NC5CC6CCCC(C5)N6)ccc4cn3)c(F)c2)n1` (stereo not drawn), in assay [1], the pIC50 was 6.00 to 7.00. Besides, in assay [2], the CDK5/CDK2 specificity entry is reported as “+ (10-fold or less more active against CDK5 than CDK2)” and the pIC50 is 6.00 to 7.00.

With `C[C@]1(N)CC[C@@H](S(=O)(=O)c2ccc3cnc(Nc4ccc(-n5ccc(CO)n5)cc4F)cc3n2)CC1`, in assay [1], the pIC50 was 6.00 to 7.00. Besides, in assay [2], the CDK5/CDK2 specificity entry is “++ (greater than 10-fold and less than or equal to 100-fold more active against CDK5 than CDK2)”; the negative-log IC50 (pIC50) is 7.00 to 8.00.

Turning to `C[C@H]1CN(C)CC[C@@H]1S(=O)(=O)c1ccc2cnc(Nc3ccc(-n4ccc(CO)n4)cc3F)cc2n1`, the negative-log IC50 (pIC50) in assay [1] is 6.00 to 7.00; in assay [2], 7.00 to 8.00. For the same compound, the CDK5/CDK2 specificity entry in assay [2] is “++ (greater than 10-fold and less than or equal to 100-fold more active against CDK5 than CDK2)”.

For the compound `CN1CCC(Nc2ccc3cnc(Nc4ccc(-n5cccn5)cc4F)cc3n2)CC1`, the negative-log IC50 (pIC50) in assay [1] is 6.00 to 7.00. In addition, in assay [2], the CDK5/CDK2 specificity entry is “++ (greater than 10-fold and less than or equal to 100-fold more active against CDK5 than CDK2)”; the pIC50 was above 8.00.

As for `CN1CCC(S(=O)(=O)c2ccc3cnc(Nc4cccc(-n5cnnn5)c4)cc3n2)CC1`, the pIC50 was 7.00 to 8.00 in assay [1] and above 8.00 in assay [2]. Moreover, the CDK5/CDK2 specificity result in assay [2] was “++ (greater than 10-fold and less than or equal to 100-fold more active against CDK5 than CDK2)”.

Take `CN1CCC(N(CC(=O)O)c2ccc3cnc(Nc4cccc(S(N)(=O)=O)c4)cc3n2)CC1`: the pIC50 in assay [1] was 7.00 to 8.00; in assay [2] it was above 8.00. For the same compound, in assay [2], the CDK5/CDK2 specificity entry is “++ (greater than 10-fold and less than or equal to 100-fold more active against CDK5 than CDK2)”.

Regarding `CN1CCC([C@@](C)(O)c2ccc3cnc(Nc4ccc(-n5cc(C#N)cn5)cc4F)cc3n2)CC1`, the negative-log IC50 (pIC50) in assay [1] was 6.00 to 7.00. Further, in assay [2], the CDK5/CDK2 specificity entry is “++ (greater than 10-fold and less than or equal to 100-fold more active against CDK5 than CDK2)”; the negative logarithm of the IC50 (pIC50) was above 8.00.

With `CN1CCC(S(=O)(=O)c2ccc3cnc(Nc4ccc(-c5ccccc5C(N)=O)cc4F)cc3n2)CC1`, the pIC50 in assay [1] is 6.00 to 7.00. Moreover, in assay [2], the CDK5/CDK2 specificity entry was “++ (greater than 10-fold and less than or equal to 100-fold more active against CDK5 than CDK2)”; the negative-log IC50 (pIC50) was above 8.00.

In the case of `COc1ncccc1-c1ccc(Nc2cc3nc(S(=O)(=O)C4CCN(C)CC4)ccc3cn2)c(F)c1`, the pIC50 in assay [1] is below 6.00; in assay [2] it was above 8.00. Also, the CDK5/CDK2 specificity result in assay [2] is “+++ (greater than 100-fold more active against CDK5 than CDK2)”.

Turning to `CN1CCC(S(=O)(=O)Nc2ccc3cnc(Nc4ccc(-n5ccc(CO)n5)cc4F)cc3n2)CC1`, the negative logarithm of the IC50 (pIC50) in assay [1] is below 6.00. In addition, in assay [2], the CDK5/CDK2 specificity result is “++ (greater than 10-fold and less than or equal to 100-fold more active against CDK5 than CDK2)”; the pIC50 was 6.00 to 7.00.

For `CN[C@H](c1ccc2cnc(Nc3ccc(-n4cccn4)cc3F)cc2n1)C1CCN(C)CC1`, the negative logarithm of the IC50 (pIC50) in assay [1] was 6.00 to 7.00; in assay [2] it was 7.00 to 8.00. Moreover, in assay [2], the CDK5/CDK2 specificity entry is “++ (greater than 10-fold and less than or equal to 100-fold more active against CDK5 than CDK2)”.

As for `Cc1ccc(N2CCCC2=O)cc1Nc1cc2nc(C(C)(O)C3CCN(C)CC3)ccc2cn1` (stereo not drawn), the pIC50 in assay [1] is 6.00 to 7.00. In assay [2], the CDK5/CDK2 specificity entry was “++ (greater than 10-fold and less than or equal to 100-fold more active against CDK5 than CDK2)”; the negative logarithm of the IC50 (pIC50) is 7.00 to 8.00.

Regarding `CN1CCC([C@@](C)(O)c2ccc3cnc(Nc4ccc(-c5ccccc5C#N)cc4F)cc3n2)CC1`, the negative logarithm of the IC50 (pIC50) in assay [1] is 7.00 to 8.00. Moreover, in assay [2], the CDK5/CDK2 specificity result was “++ (greater than 10-fold and less than or equal to 100-fold more active against CDK5 than CDK2)”; the negative-log IC50 (pIC50) is above 8.00.

As to `CN1CCC(S(=O)(=O)c2ccc3cnc(Nc4ccc(=O)[nH]c4)cc3n2)CC1`, the pIC50 in assay [1] is 6.00 to 7.00. In addition, in assay [2], the CDK5/CDK2 specificity entry is “++ (greater than 10-fold and less than or equal to 100-fold more active against CDK5 than CDK2)”; the negative-log IC50 (pIC50) is 7.00 to 8.00.

For the compound `CCOC(=O)c1cccc(Nc2cc3nc(SC4CCNCC4)ccc3cn2)c1`, the pIC50 in assay [1] is above 8.00. In assay [2], the CDK5/CDK2 specificity entry was “++ (greater than 10-fold and less than or equal to 100-fold more active against CDK5 than CDK2)”; the pIC50 was above 8.00.

As for `CN1CCC(S(=O)(=O)c2ccc3cnc(Nc4ccc(-c5noc(=O)[nH]5)cc4)cc3n2)CC1`, the figures for the negative-log IC50 (pIC50) in assay [1] and in assay [2] were 6.00 to 7.00 and above 8.00, respectively. For the same compound, in assay [2], the CDK5/CDK2 specificity entry was “+++ (greater than 100-fold more active against CDK5 than CDK2)”.

For `N[C@H]1CC[C@H](Sc2ccc3cnc(Nc4ccc(-n5cccn5)cc4F)cc3n2)CC1`, the pIC50 in assay [1] is 7.00 to 8.00. For the same compound, in assay [2], the CDK5/CDK2 specificity entry was “++ (greater than 10-fold and less than or equal to 100-fold more active against CDK5 than CDK2)”; the negative logarithm of the IC50 (pIC50) was above 8.00.

The values are drawn from US20220389009A1, “SUBSTITUTED 1,6-NAPHTHYRIDINE INHIBITORS OF CDK5” (Goldfinch Bio, Inc., priority 2019, published 2022).
